Results published in patent US20100048498A1, “STABLE NON-DIHYDRATE AZITHROMYCIN ORAL SUSPENSIONS” (priority 2004, published 2010).

Assay: Effects of flavoring components upon azithromycin form F conversion in constituted POS
Format: physicochemical
Details: room temperature
Description: An identical test was also performed using form F azithromycin. The calculated solvent levels were again used to create solutions of these single components in water and used to constitute samples of POS formulation I using form F. The constituted drug suspensions were stored at room temperature for 24-hours, before being filtered and analyzed by SS-NMR for quantification of azithromycin form change over this interval. POS formulation II was constituted with water and stored identically to serve as a control for this experiment. The design and results of this investigation can be seen in Table 9.

[1] = Formulation I constituted with 18 mL 0.0577 mg/ml benzaldehyde
[2] = Formulation I constituted with 18 mL 0.922 mg/ml 3-methyl-butyl acetate + 0.0577 mg/ml benzaldehyde
[3] = Formulation I constituted with 18 mL 0.922 mg/ml 3-methyl-butyl acetate
[4] = Formulation I constituted with 18 mL 1.666 mg/ml 3-methyl-butyl acetate
[5] = Formulation II constituted with 18 mL Water

Q: For `CCC1OC(=O)C(C)C(O[C@H]2C[C@@](C)(OC)[C@@H](O)C(C)O2)C(C)[C@@H](OC2OC(C)CC(N(C)C)[C@H]2O)[C@@](C)(O)C[C@@H](C)CN(C)[C@H](C)[C@@H](O)[C@]1(C)O` (stereo partly shown) [Form F, azithromycin monohydrate hemi-ethanol solvate], which “% A (SS-NMR Evaluation after 24 hrs constitution)” value [1] is on record?
A: 0%

Q: And the “% G (SS-NMR Evaluation after 24 hrs constitution)” value [1]?
A: 0%

Q: What about the “% A (SS-NMR Evaluation after 24 hrs constitution)” value [2] of the same compound?
A: 6%

Q: And the “% G (SS-NMR Evaluation after 24 hrs constitution)” value [2]?
A: 0%

Q: What about the “% A (SS-NMR Evaluation after 24 hrs constitution)” value [3] of the same compound?
A: 0%

Q: What about the “% G (SS-NMR Evaluation after 24 hrs constitution)” value [3] of the same compound?
A: 0%

Q: And the “% A (SS-NMR Evaluation after 24 hrs constitution)” value [4]?
A: 5%

Q: What about the “% G (SS-NMR Evaluation after 24 hrs constitution)” value [4] of the same compound?
A: 0%

Q: And the “% A (SS-NMR Evaluation after 24 hrs constitution)” value [5]?
A: 59%

Q: What about the “% G (SS-NMR Evaluation after 24 hrs constitution)” value [5] of the same compound?
A: 41%
